Where two headings read alike, the source gives them in different places.
Legend:
[1] = target: human growth hormone secretagogue receptor (hGHS-R1a) (Homo sapiens, UniProt Q92847); test: Competitive radioligand binding assay (ghrelin receptor), [125I]-ghrelin displacement on GHS-R/HEK 293 membranes
[2] = target: human ghrelin receptor (hGHS-R1a) (Homo sapiens, UniProt Q92847); format: cell-based; conditions: Table 4; functional (agonist) activity; TFA salts unless otherwise noted
[3] = target: motilin receptor (Homo sapiens, UniProt O43193); test: Selectivity for the ghrelin receptor versus the motilin receptor
[4] = Table 3B, binding activity at the human ghrelin receptor
[5] = Table 4, TFA salts unless otherwise noted
[6] = read-out: Binding Activity at the Human Ghrelin Receptor (Ki), [125I]-ghrelin displacement, GHS-R/HEK 293 membranes, class symbols
[7] = Binding activity at the human ghrelin receptor, [125I]-ghrelin displacement

By UniProt entry, the sequences of proteins in these tests, tags left out.
UniProt Q92847, whole entry: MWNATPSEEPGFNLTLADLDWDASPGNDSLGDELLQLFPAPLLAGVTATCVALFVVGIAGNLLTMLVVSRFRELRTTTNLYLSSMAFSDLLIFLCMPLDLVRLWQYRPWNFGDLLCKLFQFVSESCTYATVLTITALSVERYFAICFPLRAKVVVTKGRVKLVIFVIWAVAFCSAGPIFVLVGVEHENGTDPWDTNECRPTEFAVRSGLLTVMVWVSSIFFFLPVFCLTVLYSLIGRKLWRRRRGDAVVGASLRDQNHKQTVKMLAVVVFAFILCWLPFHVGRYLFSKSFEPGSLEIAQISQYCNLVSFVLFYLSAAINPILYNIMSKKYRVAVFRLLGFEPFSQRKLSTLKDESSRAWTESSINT
UniProt O43193, whole entry: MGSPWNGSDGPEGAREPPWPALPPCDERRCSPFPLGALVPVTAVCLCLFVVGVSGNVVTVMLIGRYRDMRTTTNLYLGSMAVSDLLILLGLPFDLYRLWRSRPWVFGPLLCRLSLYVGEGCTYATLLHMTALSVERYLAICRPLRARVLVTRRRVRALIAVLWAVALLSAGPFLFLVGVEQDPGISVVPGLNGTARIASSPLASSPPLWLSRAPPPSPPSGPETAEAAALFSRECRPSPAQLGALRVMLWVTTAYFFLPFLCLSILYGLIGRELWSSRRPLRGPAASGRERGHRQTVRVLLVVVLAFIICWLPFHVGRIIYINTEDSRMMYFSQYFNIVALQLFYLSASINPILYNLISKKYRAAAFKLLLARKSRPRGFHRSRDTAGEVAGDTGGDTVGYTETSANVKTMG

| SMILES | Ki [1, 4] [nM] | Ki [1, 7] [nM] | further results |
| --- | --- | --- | --- |
| CCC(C)C1NCCCc2ccccc2C=CCNC(=O)C(Cc2cccc(Cl)c2)NC(=O)C2(CCCC2)NC1=O (centres unmarked) | 100 to 1000 | – | – |
| CCC(C)C1NCCOc2cccnc2CCCNC(=O)C(Cc2ccccc2)NC(=O)C(C)N(C)C1=O (centres unmarked) | – | – | EC50 [2]: 1 to 100 nM; Selectivity [3]: >100/1; Ki [1, 5]: 10 to 100 nM; Ki [1, 6]: 10 to 100 nM |
| CCC[C@@H]1NCCC#CCCNC(=O)[C@@H](Cc2ccccc2)NC(=O)CN(C)C1=O | – | > 10000 | – |
| CCC(C)C1NCCOc2ccccc2CCCNC(=O)C(Cc2ccccc2)N2CCC(C2=O)N(C)C1=O (centres unmarked) | – | – | Ki ([1]; Table 3E): 1000 to 10000 nM; Ki [1, 6]: 1000 to 10000 nM |
| CC[C@H](C)[C@@H]1NCCOc2ccccc2CCCNC(=O)[C@@H](Cc2ccccc2)NC(=O)[C@H](C(C)C)N(C)C1=O | – | 100 to 1000 | – |
| CCC(C)C1NCC(C)Oc2ccccc2CCCNC(=O)C(Cc2cccc(Cl)c2)NC(=O)C2(CCCC2)NC1=O (single isomer, unassigned) [399b] | 0.1 to 10 | – | – |
| O=C1CNCCOc2ccccc2CCCNC(=O)[C@H](Cc2ccccc2)NC(=O)C2(CCCC2)N1 | – | 1000 to 10000 | – |
| CCC(C)C1NCCOc2ccccc2/C=C/CNC(=O)C(COC)NC(=O)C2(CCCC2)NC1=O (centres unmarked) | – | – | Ki ([1]; Table 3D): > 10000 nM |
| CC[C@H](C)[C@@H]1NCCOc2ccccc2/C=C/CNC(=O)[C@H](Cc2cccc(Cl)c2)NC(=O)C2(CCCC2)NC1=O | 10 to 100 | – | – |
| CCC(C)[C@@H]1NCCCCCCCNC(=O)[C@@H](Cc2ccccc2)NC(=O)[C@@H](C)N(C)C1=O (some centres unmarked) | – | – | Ki [1, 6]: > 10000 nM |
| CCC1NCCOc2ccccc2/C=C/CNC(=O)C(Cc2ccccc2)NC(=O)C2(CCCC2)NC1=O (centres unmarked) | – | 100 to 1000 | – |
| CCC(C)C1NCCCCCCCNC(=O)C(Cc2ccccc2)NC(=O)C(C)N(C)C1=O (centres unmarked) | – | – | Ki [1, 6]: > 10000 nM |
| CCC(C)C1NCCOc2ccccc2/C=C/CNC(=O)C(Cc2ccc(F)c(F)c2)NC(=O)C2(CCCC2)NC1=O (centres unmarked) | 100 to 1000 | – | – |
| CC[C@H](C)[C@@H]1NCCOc2ccccc2/C=C/CNC(=O)[C@H](Cc2cccc(Cl)c2)NC(=O)C2(CCOC2)NC1=O (some centres unmarked) | 10 to 100 | – | – |
| C[C@@H]1C(=O)N[C@H](Cc2ccc(F)cc2)C(=O)NCCOCCOCCN[C@@H](C2CC2)C(=O)N1C | – | – | Ki ([1]; Table 3D): 1000 to 10000 nM |
| CC(C)[C@@H]1NCCOc2ccccc2/C=C/CNC(=O)[C@H](Cc2ccccc2)NC(=O)C2(CCOC2)NC1=O (single isomer, unassigned) | 10 to 100 | 100 to 1000 | EC50 [2]: 1 to 100 nM; Ki [1, 5]: 100 to 1000 nM |
| CCC(C)C1NCCOc2ccccc2/C=C/CNC(=O)C(CO)NC(=O)C2(CCCC2)NC1=O (centres unmarked) | – | – | Ki ([1]; Table 3D): > 10000 nM |
| CCC(C)C1NCCOc2ccccc2/C=C/CNC(=O)C(Cc2cccc(Cl)c2)NC(=O)C2(CCCC2)NC1=O (centres unmarked) | 10 to 100 | – | – |

| SMILES | Ki [1, 4] [nM] | Ki [1, 7] [nM] | further results |
| --- | --- | --- | --- |
| CC(C)CC1NCCOc2ccccc2/C=C/CNC(=O)C(Cc2cccnc2)NC(=O)C2(CCCC2)NC1=O (centres unmarked) | – | – | Ki [1, 6]: > 1000 nM |
| CCC(C)C1NCCOc2ccccc2/C=C/CNC(=O)C(Cc2ccccc2)NC(=O)C2(CCCC2)NC1=O (centres unmarked) | – | – | Ki [1, 6]: 10 to 100 nM |
| CCC[C@@H]1NCc2cccc(c2)CNC(=O)[C@@H](Cc2ccccc2)NC(=O)CN(C)C1=O | – | 1000 to 10000 | – |
| CC(C)[C@@H]1NCCOc2ccccc2/C=C/CNC(=O)[C@H](Cc2ccccc2)NC(=O)[C@@H](C)N(C)C1=O | – | 0.1 to 10 | – |
| CCC(C)[C@@H]1NCCOc2ccccc2/C=C/CNC(=O)[C@H](Cc2cc(F)cc(F)c2)NC(=O)C2(CCCC2)NC1=O (some centres unmarked) | 10 to 100 | – | – |
| CCC(C)C1NCCCc2ccccc2C=CCNC(=O)C(Cc2ccccc2)NC(=O)C(C)N(C)C1=O (centres unmarked) | – | 10 to 100 | EC50 [2]: 100 to 1000 nM; Ki [1, 5]: 10 to 100 nM |
| CC[C@H](C)[C@@H]1NCCOc2ccccc2CCCNC(=O)[C@H](Cc2cccc(Cl)c2)NC(=O)C2(CCNC2)NC1=O (some centres unmarked) | 10 to 100 | – | – |
| CC[C@H](C)[C@@H]1NCCOc2ccccc2/C=C/CNC(=O)[C@H](Cc2ccc(Cl)c(Cl)c2)NC(=O)C2(CCCC2)NC1=O | 0.1 to 10 | – | – |
| CC(C)C[C@@H]1NCCOc2ccccc2/C=C/CNC(=O)[C@H](Cc2ccncc2)NC(=O)C2(CCCC2)NC1=O | – | – | Ki [1, 6]: > 10000 nM |
| CC(C)C[C@@H]1NCCOc2ccccc2/C=C/CNC(=O)[C@H](Cc2ccccn2)NC(=O)C2(CCCC2)NC1=O | – | – | Ki [1, 6]: > 1000 nM |
| CCC(C)C1NCC(C)Oc2ccccc2CCCNC(=O)C(Cc2cccc(Cl)c2)NC(=O)C2(CCCC2)NC1=O (single isomer, unassigned) [368b] | 10 to 100 | – | – |
| CCC(C)C1NCCCc2ccccc2C=CCNC(=O)C(Cc2ccc(F)cc2)NC(=O)C(C)N(C)C1=O (centres unmarked) | 10 to 100 | – | – |
| CC1C(=O)NC(Cc2ccc(F)cc2)C(=O)NCCOCCOCCNC(C2CC2)C(=O)N1C (centres unmarked) | – | – | Ki ([1]; Table 3D): 1000 to 10000 nM |
| CCCC1C(=O)NC(Cc2ccccc2)C(=O)NCCCc2ccccc2OCCNC(C(C)CC)C(=O)N1C (centres unmarked) | – | > 1000 | – |
| CCC[C@H]1C(=O)N[C@H](Cc2ccccc2)C(=O)NCCCc2ccccc2OCCN[C@@H](C(C)CC)C(=O)N1C (some centres unmarked) | – | > 1000 | – |
| CC[C@@H]1NCCOc2ccccc2/C=C/CNC(=O)[C@H](Cc2ccccc2)NC(=O)C2(CCCC2)NC1=O | – | 10 to 100 | – |
| CC(C)C[C@@H]1NCC/C=C/CCNC(=O)[C@H](Cc2ccccc2)NC(=O)C2(CCCC2)NC1=O | – | > 10000 | – |
